Literature values, collected in patent US9464021B2, “Method of preparation of stereospecific quinone derivatives” (priority 2013, dated 2016).

Protein sequences, listed by entry. Tags and fused reporters are not part of them. Residues count along the entry.
UniProt P23219, 24-599: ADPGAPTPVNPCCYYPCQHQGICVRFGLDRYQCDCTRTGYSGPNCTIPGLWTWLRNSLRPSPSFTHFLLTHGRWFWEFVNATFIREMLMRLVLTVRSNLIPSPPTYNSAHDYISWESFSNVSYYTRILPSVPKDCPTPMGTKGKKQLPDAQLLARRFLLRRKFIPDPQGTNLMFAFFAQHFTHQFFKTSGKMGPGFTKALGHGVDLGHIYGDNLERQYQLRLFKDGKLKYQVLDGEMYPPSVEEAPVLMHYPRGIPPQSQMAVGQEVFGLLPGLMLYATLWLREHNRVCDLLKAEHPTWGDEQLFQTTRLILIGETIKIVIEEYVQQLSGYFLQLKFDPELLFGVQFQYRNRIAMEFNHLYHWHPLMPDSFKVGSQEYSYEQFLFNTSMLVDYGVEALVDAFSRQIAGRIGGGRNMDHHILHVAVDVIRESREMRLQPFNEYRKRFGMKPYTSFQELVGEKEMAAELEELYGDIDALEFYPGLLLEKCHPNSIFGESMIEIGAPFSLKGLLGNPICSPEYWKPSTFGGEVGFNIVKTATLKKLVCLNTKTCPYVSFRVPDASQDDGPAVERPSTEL

Target: cyclo-oxygenase I (Homo sapiens, UniProt P23219)
Conditions: versus R-ibuprofen

SMILES: CC(C)Cc1ccc([C@H](C)C(=O)O)cc1 [S-ibuprofen]
- potency as inhibitor of cyclo-oxygenase I relative to R-ibuprofen: over 100 fold
